The source of these data is patent US20250042891A1.

Protein sequences, listed by entry. Tags and fused reporters are not part of them. Residues count along the entry.
UniProt Q86W56, 389-976 limits assumed: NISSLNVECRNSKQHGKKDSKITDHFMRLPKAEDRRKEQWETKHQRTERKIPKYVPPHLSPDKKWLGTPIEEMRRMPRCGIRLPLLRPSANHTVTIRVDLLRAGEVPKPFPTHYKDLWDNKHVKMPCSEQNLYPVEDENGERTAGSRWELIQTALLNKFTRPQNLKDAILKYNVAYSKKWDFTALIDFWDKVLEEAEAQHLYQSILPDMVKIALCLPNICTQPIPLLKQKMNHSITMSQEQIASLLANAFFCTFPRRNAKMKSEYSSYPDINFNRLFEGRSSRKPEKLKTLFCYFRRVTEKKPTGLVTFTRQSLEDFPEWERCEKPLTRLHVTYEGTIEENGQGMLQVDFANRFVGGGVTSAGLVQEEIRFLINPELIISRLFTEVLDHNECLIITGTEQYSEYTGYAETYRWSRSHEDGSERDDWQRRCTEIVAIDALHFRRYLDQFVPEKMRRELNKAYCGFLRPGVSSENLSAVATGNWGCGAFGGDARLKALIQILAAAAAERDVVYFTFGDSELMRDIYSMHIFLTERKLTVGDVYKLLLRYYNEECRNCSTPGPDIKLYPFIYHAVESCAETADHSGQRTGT

Like-named read-outs stand apart in the source and are kept apart here.

One test deals with HCC1395. As to the kind of experiment: CTG assay for proliferation inhibition of cell lines. As to conditions: read-out: IC50 (μM) (HCC1395); HCC1395, 7 days, CellTiter Glo. For orientation: In ATP-based viability assays light output follows the ATP content of the culture.
The next test has as its system HCC1428. Described as above. The following applies: read-out: IC50 (μM) (HCC1428); HCC1428, 7 days, CellTiter Glo.
Another test has as its system NCI-H460. The description is as above. The following applies: read-out: IC50 (μM) (NCI-H460); NCI-H460, 7 days, CellTiter Glo.
Another test concerns the target PARG (389-976) (Homo sapiens (Human), UniProt Q86W56). Put plainly: PARG enzyme inhibition assay (TR-FRET). The following applies: read-out: IC50 (PARG enzyme).
Setting [1] is: class symbol, Bio PARylated His-TEV-PARP1 substrate, TR-FRET.

In the case of `CC(C)S(=O)(=O)N1CC=C(c2cc(S(=O)(=O)NC3(C#N)CC3)cc3c2cnn3-c2nnc(C(F)F)s2)CC1`, the 50% inhibitory concentration (IC50) in the test on HCC1395 is 0.306 µM; in the test on HCC1428 it was 0.538 µM; in the test with NCI-H460, 0.312 µM; at PARG (389-976) (setting [1]) it was 0.001 to 0.01 µM; at PARG (389-976) (numeric value in parentheses under the class symbol) it was 0.00118 µM.

For `CC(C)S(=O)(=O)N1CC=C(c2cc(S(=O)(=O)NC3(C#N)CC3)cc3c2ncn3-c2nnc(C(F)(F)F)s2)CC1`, at PARG (389-976) (setting [1]), the concentration for half-maximal inhibition (IC50) lay in the range of 0.001 to 0.01 µM.

Turning to `COCC1=C(c2cc(S(=O)(=O)NC3(C#N)CC3)cc3c(-c4nnc(C(F)(F)F)s4)nn(C)c23)CCN(S(=O)(=O)C(C)C)C1`, the 50% inhibitory concentration (IC50) was determined as 0.0587 µM in the test with HCC1395 and 0.126 µM in the test with HCC1428.

Take `CC(C)S(=O)(=O)N1CC=C(c2cc(S(=O)(=O)NC3(C#N)CC3)cc3c(-c4nc(C(F)(F)F)no4)nn(C)c23)CC1`: the values for the IC50 in the test on HCC1395, in the test on HCC1428 and on PARG (389-976) (setting [1]) were 0.196 µM, 0.0833 µM and below 0.001 µM, respectively.

`CC(C)S(=O)(=O)N1CC=C(c2cc(S(=O)(=O)NC3(C#N)CC3)cc3c(-c4nnc(C(F)F)s4)cn(C)c23)CC1`: the IC50 at PARG (389-976) (setting [1]) lay in the range of 0.001 to 0.01 µM.

For the molecule `CC(C)S(=O)(=O)N1CC=C(c2cc(S(=O)(=O)NC3(C#N)CC3)cc3c(-c4nnc(C(F)F)s4)nn(CC4CC4)c23)CC1`, the 50% inhibitory concentration (IC50) amounted to 0.162 µM with HCC1395, 0.144 µM in the test with HCC1428 and 0.134 µM in the test on NCI-H460.

Regarding `[2H]C([2H])([2H])n1nc(-c2nnc(C(F)F)s2)c2cc(S(=O)(=O)NC3(C#N)CC3)cc(C3=CCN(S(=O)(=O)C(C)C)CC3)c21`, the 50% inhibitory concentration (IC50) in the test with HCC1395 is 0.0621 µM.

Turning to `CC(C)S(=O)(=O)N1CCC(c2cc(S(=O)(=O)NC3(C#N)CC3)cc3c(-c4nnc(C(F)(F)F)s4)nn(C)c23)=C(F)C1`, the concentration for half-maximal inhibition (IC50) turned out to be 0.156 µM in the test on HCC1395, 0.185 µM with HCC1428 and 0.131 µM in the test on NCI-H460.

Turning to `CN1CC(S(=O)(=O)N2CC=C(c3cc(S(=O)(=O)NC4(C#N)CC4)cc4c(-c5nnc(C(F)F)s5)nn(C)c34)CC2)C1`, the values for the 50% inhibitory concentration (IC50) with HCC1395, in the test on HCC1428 and in the test with NCI-H460 were 1.46 µM, 2.09 µM and 0.891 µM, respectively.

With `CC(C)S(=O)(=O)N1CC=C(c2cc(S(=O)(=O)NC3(C#N)CC3)nc3c(-c4nnc(C(F)(F)F)s4)nn(C)c23)CC1`, the IC50 at PARG (389-976) (setting [1]) lay within 0.1 to 1 µM.

As usually defined, the IC50 is the concentration at which inhibition is half-maximal.
